Data from patent US20260384437A1, “1H-[1,2,3]TRIAZOLO[4,5-H]QUINAZOLINE COMPOUNDS AS PROTEIN KINASE INHIBITORS” (published 2026).

Columns and labels:
[1] = tested on: human ovarian cancer OVCAR-3 tumor; assay: OVCAR-3 tumor model; details: p.o. 5, 10, 15 mg/kg twice daily, 22 days; NOD-SCUD mice; FIG. 3
[2] = tested on: human gastric cancer MKN1 tumor; assay: MKN1 tumor model; details: p.o. 10, 20, 30 mg/kg once daily, 22 days; BALB/c nude mice; FIG. 4

With CC(C)n1nnc2ccc3cnc(Nc4ccc(C(=O)N5CC[C@H](N(C)C)C5)cc4)nc3c21 the “growth inhibitory effect on the OVCAR-3 tumor model” value [1] was “showing a dose-dependent relationship” and the “growth inhibitory effect on the MKN1 tumor model” value [2] was “showing a dose-dependent relationship”.
